Measured values: patent US20150141411A1, “SUBSTITUTED 3,4-DIHYDRO-2H-PYRIDO[1,2-A]PYRAZINE-1,6-DIONE DERIVATIVES USEFUL FOR THE TREATMENT OF (INTER ALIA) ALZHEIMER'S DISEASE” (Janssen Pharmaceuticals, Inc., priority 2012, published 2015)

What was measured:
[1] = tested on: Aβtotal; test: In vivo efficacy: brain soluble Aβtotal in non-transgenic rodents (ELISA); settings: dose 30 mg/kg oral dosing, brain soluble fraction, animals sacrificed after 4 h, untreated animals (Ctrl) set at 100
Excerpt: To determine whether acute administration of an Aβ42 lowering agent would reduce Aβ42 levels in vivo, non-transgenic rodents, e.g. mice or rats were used. Animals treated with the Aβ42 lowering agent were examined and compared to those untreated or treated with vehicle and brain levels of soluble Aβ42 and total Aβ were quantitated by standard techniques, for example, using ELISA. Treatment periods varied from hours (h) to days and were adjusted based on the results of the Aβ42 lowering once a time course of onset of effect could be established.
A typical protocol for measuring Aβ42 lowering in vivo is shown but it is only one of many variations that could be used to optimize the levels of detectable Aβ. […] After 4 h, the animals were sacrificed and Aβ42 levels were analysed.
(§1) Blood was collected by decapitation and exsanguinations in EDTA-treated collection tubes. […] The left hemisphere was stored at −18° C. for quantitative analysis of test compound levels. […]
Mouse brains from non-transgenic animals were resuspended in 8 volumes of 0.4% DEA (diethylamine)/50 mM NaCl containing protease inhibitors (Roche-11873580001 or 04693159001) per gram of tissue, e.g. for 0.158 g brain, add 1.264 ml of 0.4% DEA. […] Nine parts of supernatant were neutralized with 1 part 0.5 M Tris-HCl pH 6.8 and used to quantify Aβtotal and Aβ42. […]

[2] = tested on: Aβ38; test: In vivo efficacy: brain soluble Aβ38 in non-transgenic rodents (ELISA); settings: dose 30 mg/kg oral dosing, brain soluble fraction, animals sacrificed after 4 h, untreated animals (Ctrl) set at 100
Excerpt: To determine whether acute administration of an Aβ38 increasing agents would increase Aβ38 levels in vivo, non-transgenic rodents, e.g. mice or rats were used. Animals treated with the Aβ38 increasing agents were examined and compared to those untreated or treated with vehicle and brain levels of soluble Aβ38 and total Aβ were quantitated by standard techniques, for example, using ELISA. Treatment periods varied from hours (h) to days and were adjusted based on the results of the Aβ38 increase once a time course of onset of effect could be established.
A typical protocol for measuring Aβ38 increase in vivo is shown but it is only one of many variations that could be used to optimize the levels of detectable Aβ. […] After 4 h, the animals were sacrificed and Aβ38 levels were analysed.
as §1
Mouse brains from non-transgenic animals were resuspended in 8 volumes of 0.4% DEA (diethylamine)/50 mM NaCl containing protease inhibitors (Roche-11873580001 or 04693159001) per gram of tissue, e.g. for 0.158 g brain, add 1.264 ml of 0.4% DEA. […] Nine parts of supernatant were neutralized with 1 part 0.5 M Tris-HCl pH 6.8 and used to quantify Aβ total and Aβ38. […]

Cc1cn(-c2ccc3n(c2=O)C[C@H](C)N(Cc2ccc(Cl)c(Cl)c2)C3=O)cn1
Aβtotal (% vs Ctrl)_Mean [1]: 98 % vs Ctrl | Aβ38 (% vs Ctrl)_Mean [2]: 83 % vs Ctrl
